The entries are a selection whose mix differs from that of the whole data set. The source made the active and inactive calls. The calls were made as follows: active = hit-call score of the fitted dose curve at least 0.9, where 1 is the maximum; inactive = score below 0.9.

Outcome and AC50 data for 17 compounds are collected here from PubChem BioAssay (EPA / NIEHS).

This test can be described thus: ATG_Sox_CIS: Attagene CIS-FACTORIAL HepG2 Assay for human SRY-box transcription factor (SOX) (AID 2282960). Particulars: HepG2 Attagene cis-factorial SOX reporter, mRNA; actives raise or lower the signal. On the procedure:
ATG_CIS is a cell-based, multiplexed-readout assay that uses HepG2, a human liver cell line, with measurements taken at 24 hours after chemical dosing in a 24-well plate.ATG_Sox_CIS is one of 52 assay component(s) measured or calculated from the ATG_CIS assay. It is designed to make measurements of mRNA induction, a form of inducible reporter, as detected with fluorescence intensity signals by Reverse transcription polymerase chain reaction (RT-PCR) and Capillary electrophoresis technology.Data from the assay component ATG_Sox_CIS was analyzed into 1 assay endpoint. This assay endpoint, ATG_Sox_CIS, was analyzed with bidirectional fitting relative to DMSO as the negative control and baseline of activity. Using a type of inducible reporter, measures of mRNA for gain or loss-of-signal activity can be used to understand the reporter gene at the transcription factor-level as they relate to the gene SOX1. Furthermore, this assay endpoint can be referred to as a primary readout, because this assay has produced multiple assay endpoints where this one serves a reporter gene function. To generalize the intended target to other relatable targets, this assay endpoint is annotated to the dna binding intended target family, where the subfamily is HMG box protein.
Human liver HepG2 cells are transiently transfected with multiple reporter transcription units (MRTUs) in 6-well plates using FuGene 6 reagent (Roche; 3 ml FuGene/1 mg DNA). The MRTU constructs are regulated by a cis-regulating element (promoter). […] A major difference between the CIS and TRANS system is that in CIS activities of endogenous TFs are measured, whereas the TRANS assay evaluates changes in activities of exogenous, chimeric NR-Gal4 proteins. […] At the end of 24 hour incubation, total RNA was isolated using TriZol reagent (Invitrogen). The isolated RNA is then reverse-transcribed using oligo(dT) primer and Mo-MLV reverse transcriptase (Invitrogen) with DNAse I (Ambion) treatment for 30 min. The one-tenth of the produced cDNA was amplified by PCR using Taq DNA polymerase (Invitrogen) and two reporter sequence-specific primers. The PCR products were fluorescently labeled by primer extension with 6-arboxyfluorescein (6-FAM) 5'-labeled reporter sequence-specific primer (2 min at 95 C, 20 s at 68 C and 10 min at 72 C) and these products were digested with 5U of HpaI (New England Biolabs) for 2h at 37 C. The fragments were purified using Qiaquick PCR columns (Qiagen), analyzed on an ABI 3130xL genetic analyzer (Applied Biosystems) with peak positions identified by using a set of X-rhodamine (ROX)-labeled MapMarker1000 molecular weight standards (BioVentures). The raw capillary electrophoresis data was processed using Attagraph software (Attagene).
In the case of `O=C(Cl)OCCOC(=O)Cl`, the compound was called inactive.
Same read-out and setting: in the case of `O=C(Cl)Oc1ccccc1` it was “inactive”; in that of `CCCCC(CC)CO[P+](=O)OCC(CC)CCCC` (configuration not stated), “inactive”; in that of `CCCCO[P+](=O)OCCCC`, “inactive”.
With `CC(C)CCCCCCCOP(OCCCCCCCC(C)C)Oc1ccccc1`, the compound was classed as inactive.
As for `O=[p+]1oc2ccccc2c2ccccc21` (configuration not stated), the outcome was inactive.
By AC50 is commonly meant the midpoint of the concentration-response curve, whichever way the signal moves. Take `N#CSc1ccc([N+](=O)[O-])cc1[N+](=O)[O-]`: the AC50 was active: 17.1 µM.
Take `ClP(Cl)c1ccccc1`: the outcome was inactive.
As for `O=[As]c1ccccc1` (configuration not stated), the AC50 is active: 0.412 µM.
For the compound `O=C1C2CC=CCC2C(=O)N1SC(Cl)(Cl)C(Cl)Cl` (configuration not stated), the compound was classed as inactive.
In the case of `CCCCOP(OCCCC)OCCCC`, the compound was classed as inactive.
As for `O=P(Cl)(Oc1ccccc1)Oc1ccccc1`, the compound was classed as inactive.
Same read-out and setting: in the case of `O=[P+](Oc1ccccc1)Oc1ccccc1` it was “inactive”.
Same read-out and setting: the result for `O=[N+]([O-])c1ccc([N+](=O)[O-])cc1` reads “inactive”; that for `CN(C(=O)Cc1cccc2occc12)[C@H]1CC[C@@]2(CCCO2)C[C@@H]1N1CCCC1`, “inactive”.
On the same count and under the same terms, the result for `Cc1cc([N+](=O)[O-])cc([N+](=O)[O-])c1O` reads “inactive”; that for `CC(C)OP(=S)(OC(C)C)SCCNS(=O)(=O)c1ccccc1`, “inactive”.
